These are literature values, as cited in publication PMC11346437.

Amino acid sequences for entries named in this document (tags omitted).
UniProt Q07817, whole entry: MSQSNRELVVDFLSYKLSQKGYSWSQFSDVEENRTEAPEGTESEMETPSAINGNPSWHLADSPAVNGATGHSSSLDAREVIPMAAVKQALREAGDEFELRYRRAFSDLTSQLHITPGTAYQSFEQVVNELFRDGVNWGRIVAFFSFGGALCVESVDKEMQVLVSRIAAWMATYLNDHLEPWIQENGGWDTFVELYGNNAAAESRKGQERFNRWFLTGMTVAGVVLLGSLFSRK
UniProt Q07812, whole entry: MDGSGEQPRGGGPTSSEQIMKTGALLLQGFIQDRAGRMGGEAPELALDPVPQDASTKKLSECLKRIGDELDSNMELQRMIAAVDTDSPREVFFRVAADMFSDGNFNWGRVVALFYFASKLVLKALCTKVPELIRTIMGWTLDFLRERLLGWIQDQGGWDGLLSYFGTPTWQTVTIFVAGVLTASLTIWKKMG
UniProt O43521, whole entry: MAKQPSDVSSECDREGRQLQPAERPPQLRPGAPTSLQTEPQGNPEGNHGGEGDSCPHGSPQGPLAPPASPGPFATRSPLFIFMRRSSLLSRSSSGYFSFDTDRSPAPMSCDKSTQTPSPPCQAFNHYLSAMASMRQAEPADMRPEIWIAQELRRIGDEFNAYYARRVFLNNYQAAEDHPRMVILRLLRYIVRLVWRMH

As a reminder, the Kd is a measure of binding affinity in units of concentration.

For series [1], the target named is Bcl-XL (Homo sapiens) (UniProt Q07817).
In series [2] the target is Bax (Homo sapiens) (UniProt Q07812).

For Bim (from UniProt O43521), the Kd in series [1] was 3 nM; in series [2] it was 60 nM.
